Measurements taken from patent publication US9139568B2 (Merck Patent GmbH, priority 2011, dated 2015).
pIC50: −log10 of the molar value.

Amino acid sequences for entries named in this document (tags omitted). Residues count along the entry.
UniProt P23443, 1-421 T412E: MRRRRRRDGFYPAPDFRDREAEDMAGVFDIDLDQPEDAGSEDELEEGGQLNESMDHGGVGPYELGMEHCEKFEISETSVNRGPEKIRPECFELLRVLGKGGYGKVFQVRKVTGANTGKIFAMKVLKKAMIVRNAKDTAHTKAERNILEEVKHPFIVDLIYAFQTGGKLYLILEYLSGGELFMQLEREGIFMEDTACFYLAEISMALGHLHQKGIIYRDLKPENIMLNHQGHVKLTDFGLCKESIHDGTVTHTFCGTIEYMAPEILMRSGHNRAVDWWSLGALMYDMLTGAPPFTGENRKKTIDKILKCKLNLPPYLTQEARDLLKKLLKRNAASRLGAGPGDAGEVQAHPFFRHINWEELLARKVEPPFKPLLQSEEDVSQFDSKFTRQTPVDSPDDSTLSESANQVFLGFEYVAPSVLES

Target: P70S6K (Homo sapiens (Human), UniProt P23443, T412E)
Assay: P70S6K Enzyme Assay
Format: biochemical
Description: P70S6K inhibitor compounds are diluted and plated in 96 well plates. A reaction mixture including the following components is then added to the compound plate to initiate the enzyme reaction; P70S6K (3 nM, T412E mutant, Millipore) is mixed with 24 μM ATP in an assay buffer containing 100 mM Hepes (pH 7.5), 5 mM MgCl2, 1 mM DTT, 0.015% Brij and 1 μM of the substrate peptide FITC-AHA-AKRRRLSSLRA-OH (derived from the S6 ribosomal protein sequence, FITC=fluorescein isothiocyanate, AHA=6-aminohexanoic acid). The reaction is incubated for 90 min at 25° C., before the addition of 10 mM EDTA to stop the reaction. The proportion of substrate and product (phosphorylated) peptide is analysed on a Caliper Life Sciences Lab Chip 3000, using a pressure of −1.4 psi, and upstream and downstream voltages of −3000 and −700 respectively. Product peaks are resolved before substrate peaks on the resulting chromatograms.

NC(=O)c1ccc(NCc2cccc(F)c2)c2cccnc12 [Example 33, 5-(3-Fluorobenzylamino)-quinoline-8-carboxamide] showed a pIC50 of 6.43.
